Here are results for one compound from patent US20230391730A1, “INHIBITORS OF THE BROMODOMAIN PHD FINGER TRANSCRIPTION FACTOR (BPTF) AS ANTI-CANCER AGENTS” (Regents of the University of Minnesota, priority 2020, published 2023).

Each structure is given as a SMILES string.

The target in this assay is BPTF bromodomain (Homo sapiens, UniProt Q12830). Briefly: BPTF AlphaScreen competitive inhibition assay. Format: binding. Further details: 30 nM for His9-tagged BPTF bromodomain and 50 nM for the biotinylated peptide were used; made in house.

On to `Cn1ncc(NC2CNC2)c(Cl)c1=O` [Compound 4, 5-(azetidin-3-ylamino)-4-chloro-2-methylpyridazin-3(2H)-one], for which the concentration for half-maximal inhibition (IC50) turned out to be 8.7 µM. Besides, the “L.E. (ligand efficiency)” value (from BPTF AlphaScreen) turned out to be 0.49.
